Some of the results follow. These assays gave more results; the selection is not random. The source made the active and inactive calls. No cut-off for these calls is given here.
Molecular target: Guanine nucleotide-binding protein G(s) subunit alpha isoforms short (Homo sapiens) (UniProt P63092)
Assay: qHTS for Agonist of gsp, the Etiologic Mutation Responsible for Fibrous Dysplasia/McCune-Albright Syndrome: qHTS.
Assay type: functional

| SMILES | Potency |
| --- | --- |
| CC[n+]1c(/C=C/N(C)c2ccccc2)oc2ccc(Cl)cc21 | inactive |
